The values below are quoted from earlier work in patent US10308662B2, “Thienopyranones as kinase and epigenetic inhibitors” (SignalRx Pharmaceuticals, Inc., priority 2014, dated 2019).

In this data set the target is BRD4-1 (Homo sapiens (Human), UniProt O60885). To be noted: cited from earlier work.

As for `CC[C@@H]1C(=O)N(C)c2cnc(Nc3ccc(C(=O)N[C@H]4CC[C@H](N5CCN(CC6CC6)CC5)CC4)cc3OC)nc2N1C(C)C` [BI6727], the BRD4-1 inhibition result is on record as “some degree of BRD4-1 inhibitory activity”.
